According to patent US20220106400A1 (Bristol-Myers Squibb, published 2022):

Molecular target: T1, human GITR (human, UniProt Q9Y5U5 26-241)
T1 sequence (looked up): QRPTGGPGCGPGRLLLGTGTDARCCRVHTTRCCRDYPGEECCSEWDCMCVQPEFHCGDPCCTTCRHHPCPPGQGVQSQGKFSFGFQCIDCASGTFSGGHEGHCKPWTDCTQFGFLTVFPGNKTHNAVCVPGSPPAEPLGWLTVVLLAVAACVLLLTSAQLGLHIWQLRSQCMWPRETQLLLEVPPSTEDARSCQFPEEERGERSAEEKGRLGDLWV
Test: cell-based or functional assay

B1: GITR.6.G2.G1f (antibody, human IgG2, kappa)
heavy: QVQLVESGGGVVQPGRSLRLSCAASGFTFSSYGMHWVRQAPGKGLEWVAVIWYEGSNKYYADSVKGRFTISRDNSKNTLYLQMNSLRAEDTAVYYCARGGSMVRGDYYYGMDVWGQGTTVTVSSASTKGPSVFPLAPCSRSTSESTAALGCLVKDYFPEPVTVSWNSGALTSGVHTFPAVLQSSGLYSLSSVVTVPSSNFGTQTYTCNVDHKPSNTKVDKTVERKCCVE[human IgG1 Fc skipped]
light: AIQLTQSPSSLSASVGDRVTITCRASQGISSALAWYQQKPGKAPKLLIYDASSLESGVPSRFSGSGSGTDFTLTISSLQPEDFATYYCQQFNSYPYTFGQGTKLEIKRTVAAPSVFIFPPSDEQLKSGTASVVCLLNNFYPREAKVQWKVDNALQSGNSQESVTEQDSKDSTYSLSSTLTLSKADYEKHKVYACEVTHQGLSSPVTKSFNRGEC
With B1 the “NFKB signaling in TCR activated CD4+ T cells, EC50” value was 9 nM, the “NFKB signaling in TCR activated CD4+ T cells, Emax” value was 100% and the “NFKB signaling in TCR activated CD8+ T cells, EC50” value was 3.77 nM. The “NFKB signaling in TCR activated CD8+ T cells, Emax” value was 92%.

B2: GITR.6-IgG1f (antibody)
heavy: QVQLVESGGGVVQPGRSLRLSCAASGFTFSSYGMHWVRQAPGKGLEWVAVIWYEGSNKYYADSVKGRFTISRDNSKNTLYLQMNSLRAEDTAVYYCARGGSMVRGDYYYGMDVWGQGTTVTVSSASTKGPSVFPLAPSSKSTSGGTAALGCLVKDYFPEPVTVSWNSGALTSGVHTFPAVLQSSGLYSLSSVVTVPSSSLGTQTYICNVNHKPSNTKVDKRV[human IgG1 Fc skipped]
light: B1 light
With B2 the “NFKB signaling in TCR activated CD4+ T cells, EC50” value was 7.3 nM, the “NFKB signaling in TCR activated CD4+ T cells, Emax” value was 10.8% and the “NFKB signaling in TCR activated CD8+ T cells, EC50” value was 20.1 nM. For the same binder, the “NFKB signaling in TCR activated CD8+ T cells, Emax” value was 27%.
